Earlier results, collected in publication PMC12240781 (Frontiers in Pharmacology, 2025).

Conditions: ranging from undetectable; ref Chan et al., 1990; cited from earlier work

Substance: 6-thioguanine nucleotides [6-TGNs]
- Levels of 6-TGNs: ≤ 413 pmol per 8 × 10^8 red blood cells
